From patent US20230137927A1, “INTERFERON TAU AS ANTIVIRAL THERAPY” (priority 2020, published 2023)

What was measured:
[1] = system: Huh-7 cells
[2] = system: ZIKV strain PRVABC59; assay: ZIKV plaque reduction assay in VERO cells; format: cell-based, Zika virus; conditions: 1 hr pre-incubation
[3] = system: ZIKV (ZIKA/PRVAB59); assay: Anti ZIKV CPE assay in Huh-7 cells

IFN-β: IFN-β used as the positive control of the ZIKV assays
CC50 [1]: >2000 IU/ml | Inhibition (%) ([2]; 0.16 IU/ml): 21.43% | Inhibition (%) ([2]; 0.8 IU/ml): 21.43% | Inhibition (%) ([2]; 4 IU/ml): 33.93% | Inhibition (%) ([2]; 20 IU/ml): 100% | Inhibition (%) ([2]; 100 IU/ml): 100% | Average Activity(%) ([3]; 0.03 IU/ml): 1.85% | Average Activity(%) ([3]; 0.13 IU/ml): −6.80% | Average Activity(%) ([3]; 0.64 IU/ml): 6.46% | Average Activity(%) ([3]; 3.2 IU/ml): 27.59% | Average Activity(%) ([3]; 16 IU/ml): 86.73% | Average Activity(%) ([3]; 80 IU/ml): 106.71% | Average Activity(%) ([3]; 400 IU/ml): 106.29% | Average Activity(%) ([3]; 2000 IU/ml): 101.94% | EC50 ([3]; Huh-7 cells, positive control): 5.39 IU/ml
